Here are results for two substances from article PMC2653193, “A Unique Dual Activity Amino Acid Hydroxylase in Toxoplasma gondii” (PLoS ONE, 2009).

For this series, the system named is N[C@@H](Cc1ccc(O)cc1)C(=O)O. Briefly: purified protein. To be noted: 500 µM 6-MPH4, 500 µM NADH, 10 µM ferrous ammonium sulphate, 50 mM HEPES, pH 7.5, 32°C, 0-200 µM tyrosine.

By Km is commonly meant the concentration of substrate that gives half-maximal velocity. Consider Δ239TgAaaH1 (Toxoplasma gondii), for which the Km was determined as 3.22 ± 1.15 µM.
The figure for Δ239TgAaaH2 (Toxoplasma gondii) is 4.12 ± 0.10 µM.
